In patent US20210324005A1, “Beta-Arrestin Effectors and Compositions and Methods of Use Thereof” (Trevena, Inc., priority 2020, published 2021) one finds EC50 data, which are given here for 23 molecules.

Amino acid sequences for entries named in this document (tags omitted).
UniProt P25095, whole entry: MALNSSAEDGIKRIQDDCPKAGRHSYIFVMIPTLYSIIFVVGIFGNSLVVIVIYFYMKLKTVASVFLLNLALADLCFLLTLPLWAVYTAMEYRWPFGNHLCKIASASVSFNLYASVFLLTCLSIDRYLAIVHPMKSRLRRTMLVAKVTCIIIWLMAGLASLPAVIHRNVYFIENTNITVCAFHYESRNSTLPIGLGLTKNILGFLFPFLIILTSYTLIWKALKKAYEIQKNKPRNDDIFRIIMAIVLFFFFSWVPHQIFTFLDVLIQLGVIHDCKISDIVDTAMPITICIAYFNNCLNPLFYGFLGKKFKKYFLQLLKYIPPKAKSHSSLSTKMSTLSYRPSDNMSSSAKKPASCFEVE

The EC50 is the midpoint of the concentration-response curve.

What all share (type): cell-based
One experiment has as its target human AT1R (Homo sapiens, UniProt P30556). As to the kind of experiment: PathHunter β-arrestin-2 recruitment assay, human AT1R. The conditions noted are these: PathHunter β-arrestin HEK293 cells; inactive = EC50 greater than 10 uM; read-out: human AT1R b-arrestin2 EC50. As for the experimental part: (§1) The proximal event in β-arrestin function mediated by GPCRs is recruitment to receptors following ligand binding and receptor phosphorylation by GRK's. Thus, the measure of β-arrestin recruitment was used to determine ligand efficacy for β-arrestin function.
(§2) B-arrestin-2 recruitment to the human and rat angiotensin 2 type 1 receptor (human AT1R and rat AT1aR, respectively) was measured with the PathHunter™ β-arrestin assay (DiscoveRx Corporation, Fremont Calif.). Cells, plasmid(s), and detection reagent(s) were purchased from DiscoveRx, and assays were performed per the manufacturer's instructions. Human AT1R and rat AT1aR were cloned into the pCMV-ProLink vector, verified by sequencing, and transfected into PathHunter β-arrestin HEK293 cells. Stably transfected clonal cell lines were selected with Hygromycin and G418. These clonal cell lines were used for all experiments.
(§3) For assays, 25,000 cells were seeded per well in 96-well microplates in volumes of 90 μL and allowed to grow overnight at 37° C. in 5% CO2. Peptides provided herein were dissolved in deionized water to a concentration of 1 mM. Peptides were then further diluted in assay buffer (Hank's balanced salt solution with 20 mM HEPES) to add peptide to the cells to reach final concentrations ranging from 10 μM to 1 pM. Cells were then incubated for 60 minutes at 37° C. in 5% CO2, followed by the addition of 50 μL of PathHunter Detection Reagent to each well. The microplates were then incubated at room temperature for 60 minutes, and then luminescence was measured using a NOVOstar microplate reader purchased from BMG Labtech. B-arrestin-2 recruitment to receptors was measured as relative luminescence intensity expressed in arbitrary units.
In general terms: Activated receptors often draw arrestin, which recruitment assays turn into a signal.

The target in experiment [1] is T1, rat AT1aR (Rattus norvegicus, UniProt P25095). As to the kind of experiment: PathHunter β-arrestin-2 recruitment assay, rat AT1aR. The note with it: PathHunter β-arrestin HEK293 cells; inactive = EC50 greater than 10 uM; read-out: rat AT1aR b-arrestin2 EC50. Here is the method: as §1, §2, §3
The target of experiment [2] is T1, rat AT1aR. As to the kind of experiment: IP1 accumulation assay (IP-One Tb), rat AT1aR. The note with it: agonist detection, inactive = EC50 greater than 10 uM.

On to `CC(C)[C@H](NC(=O)[C@H](CCCNC(=N)N)NC(=O)[C@@H](N)CCC(=O)O)C(=O)N[C@@H](Cc1ccc(O)cc1)C(=O)N[C@@H](Cc1ccccc1)C(=O)N[C@@H](Cc1c[nH]cn1)C(=O)N1CCC[C@H]1C(N)=O` [SEQ ID NO: 64, Glu-Arg-Val-Tyr-Phe-His-Pro-NH2], for which the EC50 on human AT1R was determined as 1200 nM. In the case of `CNCC(=O)N[C@@H](CCCNC(=N)N)C(=O)N[C@H](C(=O)N[C@@H](Cc1ccc(O)cc1)C(=O)N[C@@H](CCCNC(=N)N)C(=O)N[C@@H](Cc1c[nH]cn1)C(=O)N1CCC[C@H]1C(=O)N[C@@H](C)C(=O)O)C(C)C` [SEQ ID NO: 24, Sar-Arg-Val-Tyr-Arg-His-Pro-Ala-OH], the EC50 on rat AT1aR [1] stood at 63 nM. With `C=CCOc1ccc(C[C@H](NC(=O)[C@@H](NC(=O)[C@H](CCCNC(=N)N)NC(=O)CNC)C(C)C)C(=O)N[C@H](C(=O)N[C@@H](Cc2c[nH]cn2)C(=O)N2CCC[C@H]2C(=O)N[C@H](C)C(=O)O)[C@@H](C)CC)cc1` [SEQ ID NO: 76, Sar-Arg-Val-JJJ-Ile-His-Pro-D-Ala-OH], at human AT1R, the concentration for a half-maximal effect (EC50) was determined as 1600 nM. For `CC(C)[C@H](NC(=O)[C@H](CCCNC(=N)N)NC(=O)[C@H](N)CCC(=O)O)C(=O)N[C@@H](Cc1ccc(O)cc1)C(=O)N[C@@H](Cc1ccc(O)cc1)C(=O)N[C@@H](Cc1c[nH]cn1)C(=O)N1CCC[C@H]1C(N)=O` [SEQ ID NO: 60, D-Glu-Arg-Val-Tyr-Tyr-His-Pro-NH2], at rat AT1aR [1], the concentration for a half-maximal effect (EC50) worked out at 180 nM. `CC[C@H](C)[C@H](NC(=O)[C@H](Cc1cc(Br)c(O)c(Br)c1)NC(=O)[C@@H](NC(=O)[C@H](CCCNC(=N)N)NC(=O)CNC)C(C)C)C(=O)N[C@@H](Cc1c[nH]cn1)C(=O)N1CCC[C@H]1C(=O)N[C@H](C)C(=O)O` [SEQ ID NO: 74, Sar-Arg-Val-HHH-Ile-His-Pro-D-Ala-OH]: on human AT1R, the EC50 was determined as 250 nM. On rat AT1aR [2], `CC[C@H](C)[C@H](NC(=O)[C@H](Cc1cc([N+](=O)[O-])c(O)c([N+](=O)[O-])c1)NC(=O)[C@@H](NC(=O)[C@H](CCCNC(=N)N)NC(=O)CNC)C(C)C)C(=O)N[C@@H](Cc1c[nH]cn1)C(=O)N1CCC[C@H]1C(=O)N[C@H](C)C(=O)O` [SEQ ID NO: 73, Sar-Arg-Val-GGG-Ile-His-Pro-D-Ala-OH] displayed an EC50 of 2500 nM. Turning to `CC[C@H](C)[C@H](NC(=O)[C@@H]1CCCN1C(=O)[C@H](Cc1c[nH]cn1)NC(=O)[C@@H](NC(=O)[C@@H](NC(=O)[C@@H](NC(=O)[C@H](CCCNC(=N)N)NC(=O)CNC)C(C)C)[C@@H](C)CC)C(C)C)C(=O)O` [SEQ ID NO: 3, Sar-Arg-Val-Ile-Val-His-Pro-Ile-OH], the 50% effective concentration (EC50) on rat AT1aR [1] turned out to be 120 nM.

Take `CC[C@H](C)[C@@H]1NC(=O)[C@H](Cc2ccc(O)cc2)NC(=O)[C@H](C(C)C)NC(=O)[C@H](Cc2ccccc2)NC(=O)[C@@H]2CCCN2C(=O)[C@H](Cc2c[nH]cn2)NC1=O` [SEQ ID NO: 38, Cyclo(Val-Tyr-Ile-His-Pro-Phe)]: the EC50 on rat AT1aR [1] came out at 2500 nM. On the same count and under the same terms, then `CC[C@H](C)[C@H](NC(=O)[C@H](Cc1ccc(OC)cc1)NC(=O)[C@@H](NC(=O)[C@H](CCCNC(=N)N)NC(=O)CNC)C(C)C)C(=O)N[C@@H](Cc1c[nH]cn1)C(=O)N1CCC[C@H]1C(=O)N[C@@H](C)C(=O)O` [SEQ ID NO: 29, Sar-Arg-Val-OMTyr-Ile-His-Pro-Ala-OH], with 200 nM. Take `CC[C@H](C)[C@H](NC(=O)[C@H](Cc1ccc(F)cc1)NC(=O)[C@@H](NC(=O)[C@H](CCCNC(=N)N)NC(=O)CNC)C(C)C)C(=O)N[C@@H](Cc1c[nH]cn1)C(=O)N1CCC[C@H]1C(=O)N[C@H](C)C(=O)O` [SEQ ID NO: 70, Sar-Arg-Val-DDD-Ile-His-Pro-D-Ala-OH]: the EC50 at human AT1R was 160 nM; on rat AT1aR [1], 79 nM. Take `CC[C@H](C)[C@H](NC(=O)[C@H](Cc1cc(I)c(O)c(I)c1)NC(=O)[C@@H](NC(=O)[C@H](CCCNC(=N)N)NC(=O)CNC)C(C)C)C(=O)N[C@@H](Cc1c[nH]cn1)C(=O)N1CCC[C@H]1C(=O)N[C@H](C)C(=O)O` [SEQ ID NO: 85, Sar-Arg-Val-OOO-Ile-His-Pro-D-Ala-OH]: the EC50 was found to be 1600 nM on human AT1R and 500 nM on rat AT1aR [1]. For the molecule `CNCC(=O)N[C@@H](CCCNC(=N)N)C(=O)N[C@H](C(=O)N[C@@H](Cc1ccc(O)cc1)C(=O)N[C@@H](Cc1ccccc1)C(=O)N[C@@H](Cc1c[nH]cn1)C(=O)N1CCC[C@H]1C(=O)N[C@@H](C)C(=O)O)C(C)C` [SEQ ID NO: 21, Sar-Arg-Val-Tyr-Phe-His-Pro-Ala-OH], the EC50 at rat AT1aR [1] came to 13 nM. On to `CNCC(=O)N[C@@H](CCCNC(=N)N)C(=O)N[C@H](C(=O)NCC(=O)N[C@H](C(=O)N[C@@H](Cc1c[nH]cn1)C(=O)N1CCC[C@H]1C(=O)NCC(=O)O)C(C)C)C(C)C` [SEQ ID NO: 5, Sar-Arg-Val-Gly-Val-His-Pro-Gly-OH], for which the EC50 at human AT1R came to 1600 nM; at rat AT1aR [1], 1900 nM. Consider `CNCC(=O)N[C@@H](CCCNC(=N)N)C(=O)N[C@H](C(=O)N[C@@H](Cc1ccc(O)cc1)C(=O)N[C@H](C(=O)N[C@@H](Cc1c[nH]cn1)C(=O)N1CCC[C@H]1C(=O)N[C@H](C)C(=O)O)[C@@H](C)OC)C(C)C` [SEQ ID NO: 84, Sar-Arg-Val-Tyr-OMTh-His-Pro-D-Ala-OH], for which the EC50 at rat AT1aR [1] was found to be 16 nM.

As for `CC[C@H](C)[C@H](NC(=O)[C@H](Cc1ccc(O)cc1)NC(=O)[C@@H](NC(=O)[C@H](CCCNC(=N)N)NC(=O)[C@H](C)NC)C(C)C)C(=O)N[C@@H](Cc1c[nH]cn1)C(=O)N1CCC[C@H]1C(=O)N[C@@H](C)C(=O)O` [SEQ ID NO: 34], the EC50 is 25 nM at human AT1R and 32 nM at rat AT1aR [1]. For `CN[C@@H](CCC(=O)O)C(=O)N[C@@H](CCCNC(=N)N)C(=O)N[C@H](C(=O)N[C@@H](Cc1ccc(O)cc1)C(=O)N[C@@H](Cc1ccccc1)C(=O)N[C@@H](Cc1c[nH]cn1)C(=O)N1CCC[C@H]1C(N)=O)C(C)C` [SEQ ID NO: 66, N-Me-Glu-Arg-Val-Tyr-Phe-His-Pro-NH2], on rat AT1aR [1], the 50% effective concentration (EC50) was 10000 nM. `CC[C@H](C)[C@@H]1NC(=O)[C@H](Cc2ccc(O)cc2)NC(=O)[C@H](C(C)C)NC(=O)[C@H](Cc2ccccc2)NC(=O)[C@@H]2CCCN2C(=O)[C@H](Cc2c[nH]cn2)NC(=O)[C@H]([C@@H](C)CC)NC(=O)[C@H](Cc2ccc(O)cc2)NC(=O)[C@H](C(C)C)NC(=O)[C@H](Cc2ccccc2)NC(=O)[C@@H]2CCCN2C(=O)[C@H](Cc2c[nH]cn2)NC(=O)[C@H]([C@@H](C)CC)NC(=O)[C@H](Cc2ccc(O)cc2)NC(=O)[C@H](C(C)C)NC(=O)[C@H](Cc2ccccc2)NC(=O)[C@@H]2CCCN2C(=O)[C@H](Cc2c[nH]cn2)NC1=O` [SEQ ID NO: 37]: at rat AT1aR [1], the EC50 is 1900 nM. On to `CC[C@H](C)[C@H](NC(=O)[C@H](Cc1ccc(O)c(O)c1)NC(=O)[C@@H](NC(=O)[C@H](CCCNC(=N)N)NC(=O)CNC)C(C)C)C(=O)N[C@@H](Cc1c[nH]cn1)C(=O)N1CCC[C@H]1C(=O)N[C@H](C)C(=O)O` [SEQ ID NO: 67, Sar-Arg-Val-AAA-Ile-His-Pro-D-Ala-OH], for which, at rat AT1aR [1], the EC50 was 63 nM.

Regarding `CC[C@H](C)[C@H](NC(=O)[C@H](Cc1ccc(O)c(Cl)c1)NC(=O)[C@@H](NC(=O)[C@H](CCCNC(=N)N)NC(=O)CNC)C(C)C)C(=O)N[C@@H](Cc1c[nH]cn1)C(=O)N1CCC[C@H]1C(=O)N[C@H](C)C(=O)O` [SEQ ID NO: 75, Sar-Arg-Val-III-Ile-His-Pro-D-Ala-OH], the results for the EC50 on human AT1R and on rat AT1aR [1] were 25 nM and 13 nM, respectively. On to `CC[C@H](C)[C@H](NC(=O)[C@H](Cc1ccc(O)cc1)NC(=O)[C@@H](NC(=O)[C@H](CCCNC(=N)N)NC(=O)[C@H](C)NC)C(C)C)C(=O)N[C@@H](Cc1c[nH]cn1)C(=O)N1CCC[C@H]1C(=O)N[C@H](C)C(=O)O` [SEQ ID NO: 44, NMAla-Arg-Val-Tyr-Ile-His-Pro-D-Ala-OH], for which the EC50 on rat AT1aR [2] came out at 8.2 nM. Turning to `CNCC(=O)N[C@@H](CCCNC(=N)N)C(=O)N[C@H](C(=O)N[C@@H](Cc1ccc(O)cc1)C(=O)N[C@H](C(=O)N[C@@H](Cc1c[nH]cn1)C(=O)N1CCC[C@H]1C(=O)N[C@@H](C)C(=O)O)[C@@H](C)OC)C(C)C` [SEQ ID NO: 30, Sar-Arg-Val-Tyr-OMTh-His-Pro-Ala-OH], the results for the EC50 at human AT1R and on rat AT1aR [1] were 9.2 nM and 8.2 nM, respectively. In turn, `CC(C)[C@H](NC(=O)[C@H](CCCNC(=N)N)NC(=O)CN(C)C)C(=O)N[C@@H](Cc1ccc(O)cc1)C(=O)N[C@H](C(=O)N[C@@H](Cc1c[nH]cn1)C(=O)N1CCC[C@H]1C(=O)N[C@@H](C)C(=O)O)C(C)C` [SEQ ID NO: 31, Me2G-Arg-Val-Tyr-Val-His-Pro-Ala-OH] came in with an EC50 at rat AT1aR [2] of 13 nM.

As to `CC[C@H](C)[C@H](NC(=O)[C@@H]1CCCN1C(=O)[C@H](Cc1c[nH]cn1)NC(=O)[C@@H](NC(=O)[C@H](Cc1ccc(O)cc1)NC(=O)[C@@H](NC(=O)[C@H](CCCNC(=N)N)NC(=O)CNC)C(C)C)C(C)C)C(N)=O` [SEQ ID NO: 12, Sar-Arg-Val-Tyr-Val-His-Pro-Ile-NH2], the values for the concentration giving a half-maximal response (EC50) at rat AT1aR [1] and at rat AT1aR [2] were 120 nM and 79 nM, respectively.
